Drawing on ChEMBL document CHEMBL2203264, “Optimization of imidazo[4,5-b]pyridine-based kinase inhibitors: identification of a dual FLT3/Aurora kinase inhibitor as an orally bioavailable preclinical development candidate for the treatment of acute myeloid leukemia” (J Med Chem, 2012), this text covers GI50 for 1 molecule.

In general, GI50 refers to the concentration that inhibits growth by half.

The assay deals with MOLM-13. Briefly: Growth inhibition of human MOLM13 cells. The class given is functional.

Molecule `Cc1nn(C)cc1-c1nc2c(N3CCN(Cc4ccc(Cl)cc4)CC3)c(Cl)cnc2[nH]1` [MOBINITINIB] yielded a 50% growth inhibitory concentration (GI50) of 0.104 µM.
